According to PubChem BioAssay AID1645870 (National Center for Advancing Translational Sciences (NCATS), 2021):
The list shows a part of the results, in another mix than the full data. Inconclusive results are not listed. Active and inactive are the calls of the source. Calls come from the whole dose curve; as a rule, active = well fitted inhibition curve with a large enough effect; inconclusive = small, poorly fitted or top-dose-only effect; inactive = flat fitted curve, though single readings scatter.

The chains behind the UniProt entries cited, without tags or fusion partners.
UniProt Q9BV86, whole entry: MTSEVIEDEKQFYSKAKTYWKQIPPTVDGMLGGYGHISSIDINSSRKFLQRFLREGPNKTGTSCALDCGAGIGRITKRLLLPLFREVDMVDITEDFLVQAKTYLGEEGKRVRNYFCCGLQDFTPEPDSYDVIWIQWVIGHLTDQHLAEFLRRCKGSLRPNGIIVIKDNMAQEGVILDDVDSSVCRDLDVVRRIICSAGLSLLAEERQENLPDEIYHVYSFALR

molecular target: N-terminal Xaa-Pro-Lys N-methyltransferase 1 (Homo sapiens) (UniProt Q9BV86); experiment: Primary qHTS for Inhibitors of N-terminal methyltransferase 1 (NTMT1): MTaseGlo Assay; conditions: NTMT1 MTase-Glo SAH luminescence, purified enzyme; series mostly up to 114 µM; activity change, negative = inhibition: at the top concentration; note: nearly all actives have a fitted effect of over 65% in size;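 for activity change, negative = inhibition: plate controls were DMSO vehicle for no effect and no enzyme for full effect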
Source text: Assay Submitter (PI): Rong Huang Ph.D.
Purdue University, West Lafayette, IN 47907
The N-terminal methytransferase 1 is the first methyltransferase that methylates protein alpha-N-amines and plays an important role in regulating cell mitosis, chromatin interactions and DNA repair. It is observed to be over-expressed in various cancer patient tissues like malignant melanoma and colorectal cancer tissues. Knockdown of NTMT1 in cancer cells causes cell mitotic defects and enhances sensitivity to DNA damaging chemotherapeutics. […] These critical cellular processes in which NTMT1 is implicated, coupled with emerging links to cellular dysfunction, strengthen the inference that NTMT1 is a compelling novel anticancer target. […] To address this unmet need, a panel of assay is created and established to enable quantitative high-throughput screening (qHTS) for novel, potent, and selective small molecule NTMT1 inhibitors. […]
MTaseGlo Assay is a luminescence screen that measure the activity of methyltransferases based on the reaction product S-adenosyl homocysteine (SAH). […]
8; Reagent; 5 uL; Dispense 5 uL of 1x MTase-Glo Detection Solution (R) to allow for ADP to be converted to ATP which was then detected with a luciferase reaction. […]
11; Detection; Luminescence; Plates were read on ViewLux detector (PerkinElmer). […]
Potency is the fitted concentration of half-maximal effect.

SMILES	activity change, negative = inhibition	Potency
CCC(=O)N(c1ccccc1)C1(COC)CCN(CCn2nnn(CC)c2=O)CC1	inactive: -27.4%	
CCC(=O)N(c1ccccc1)C1(COC)CCN(CCc2cccs2)CC1		active: 14.1 µM
